Where two headings read alike, the source gives them in different places.
Key:
human serum albumin = settings: cited from earlier work
alpha-acid glycoprotein = settings: cited from earlier work
gamma-globulin = settings: cited from earlier work
[1] = system: dually perfused human placental lobule; settings: for amount of BUP in the fetal circuit / amount of BUP remaining in the maternal circuit / amount of BUP retained by placental tissue: after 4 hours perfusion; for Buprenorphine concentration, fetal circuit / Buprenorphine concentration, maternal circuit: last hour of perfusion
P-glycoprotein = settings: cited from earlier work
[2] = in presence of HSA 30 mg/mL (n=5)
[3] = in presence of combination of HSA & AAG (n=7)

Buprenorphine
binding ratio (human serum albumin): 65.6% | binding ratio (alpha-acid glycoprotein): 84.9% | binding ratio (gamma-globulin): 41.5% | amount of BUP in the fetal circuit ([1]; AAG added to both circuits): 14 ± 2% | amount of BUP remaining in the maternal circuit ([1]; AAG added to both circuits): 31 ± 7% | amount of BUP retained by placental tissue ([1]; AAG added to both circuits): 55 ± 8% | amount of BUP in the fetal circuit ([1]; HSA added to both circuits): 14 ± 3% | amount of BUP remaining in the maternal circuit ([1]; HSA added to both circuits): 25 ± 5% | amount of BUP retained by placental tissue ([1]; HSA added to both circuits): 61 ± 8% | amount of BUP in the fetal circuit versus absence of proteins ([1]; either protein or combination of HSA and AAG, P<.001): higher amounts | Buprenorphine Fetal/Maternal concentration ratio ([1]; in absence of plasma proteins (n=9), end of 4 hours' perfusion): 0.43 ± 0.14 | Buprenorphine concentration, fetal circuit ([1]; in absence of plasma proteins (n=9)): 0.9 ± 0.2 ng/mL | Buprenorphine concentration, maternal circuit ([1]; in absence of plasma proteins (n=9), 10 ng/mL initial): 2.2 ± 0.2 ng/mL | amount of BUP in the fetal circuit ([1]; in absence of plasma proteins): 9 ± 3% | amount of BUP remaining in the maternal circuit ([1]; in absence of plasma proteins): 23 ± 3% | amount of BUP retained by placental tissue ([1]; in absence of plasma proteins): 68 ± 4% | Buprenorphine Fetal/Maternal concentration ratio ([1]; in presence of AAG 0.6 mg/mL maternal, 0.24 mg/mL fetal (n=4), end of perfusion): 0.47 ± 0.08 | Buprenorphine Fetal/Maternal concentration ratio ([1]; in presence of HSA 30 mg/mL (n=5), end of 4 hours' perfusion): 0.59 ± 0.06 | Buprenorphine Fetal/Maternal concentration ratio ([1]; in presence of HSA 30 mg/mL (n=5), end of 4 hours' perfusion, listed as BUP): 0.59 ± 0.06 | Buprenorphine concentration, fetal circuit [1, 2]: 1.5 ± 0.3 ng/mL | Buprenorphine concentration, maternal circuit [1, 2]: 2.3 ± 0.5 ng/mL | Buprenorphine Fetal/Maternal concentration ratio ([1]; in presence of combination of HSA & AAG (n=7), end of perfusion): 0.43 ± 0.12 | Buprenorphine concentration, fetal circuit [1, 3]: 1.5 ± 0.2 ng/mL | Buprenorphine concentration, maternal circuit [1, 3]: 3.3 ± 0.6 ng/mL | substrate of efflux transporter P-glycoprotein (P-glycoprotein): not a substrate

From publication PMC4435547 (The journal of maternal-fetal & neonatal medicine : the …, 2009)
